Among the data in patent EP2970434B1 (The Regents of the University of California, dated 2018) are IC50 (nM), inhibition of plasmin activity (S2251 hydrolysis) values, retold here.

In this assay the target is human plasmin (human) (UniProt P00747). The experiment in a line: cell-based or functional assay.

Values joined by “and” are separate entries in the source; they are usually repeats but may differ in a detail not shown here. Equal values may be shown once.

With “Aprotinin (bovine pancreatic trypsin inhibitor) (from UniProt P00974 36-93)”, the IC50 (nM), inhibition of plasmin activity (S2251 hydrolysis) is 0.48 nM and 0.57 nM.
